By ED50 is commonly meant the dose that gives a 50% effect, or the effect in half of the subjects. Read a high ED50 as weaker potency.

A short description of the data set: in vivo. The note with it: Wistar, rat, sc.

`Cc1cc2c(s1)Nc1ccccc1N=C2N1CCN(C)CC1` [Olanzapine] gave an ED50 at 2 h of 0.72 mg/kg.

The values above are taken from patent US20090118285A1, “USE OF KCNQ-OPENERS FOR TREATING OR REDUCING THE SYMPTOMS OF SCHIZOPHRENIA” (H. Lundbeck A/S, priority 2006, published 2009).
